# From US12440833B2, “Sample containers adapted for acoustic ejections and sample preservation and methods thereof” (priority 2011, dated 2025)
# Legend:
# [1] = target: T1, TPCK trypsin (Bos taurus, UniProt P00760); type: biochemical
# T1 construct: purchased Thermo Scientific Pierce 23266
# T1 sequence (P00760 24-246): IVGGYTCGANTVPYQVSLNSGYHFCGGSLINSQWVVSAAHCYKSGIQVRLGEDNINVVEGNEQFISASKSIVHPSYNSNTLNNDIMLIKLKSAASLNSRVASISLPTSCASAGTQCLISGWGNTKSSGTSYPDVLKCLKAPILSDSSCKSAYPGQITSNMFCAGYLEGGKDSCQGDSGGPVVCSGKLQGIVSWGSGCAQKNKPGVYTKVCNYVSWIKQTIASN
# Method: Protease activity and the inhibition thereof were measured with a Fluorescent Protease Assay Kit (Thermo Scientific Pierce, catalog number 23266). TRIS-buffered saline (TBS, 25 mM Tris, 0.15 M NaCl, pH 7.2) was reconstituted from dry solids in the kit with deionized water. Trypsin stock solution was freshly prepared by dissolving TPCK trypsin from kit with 1 mL deionized water to make a 50 mg/mL solution. […] Aliquots of 10 μL were stored at −60° C. Individual aliquots of the stock solution were diluted in 1.0 mL of TBS (0.5 mg/mL), and 10 μL of this solution was further diluted in 10 mL of TBS (0.5 μg/mL). This solution was serially diluted 1:1 with TBS to create a trypsin solution of 62.5 ng/mL. The trypsin solution was kept in an ice bath until use. 200 μL of the diluted trypsin (12.5 ng) was added to each prepared polypropylene tube. The solution was aspirated and re-dispensed three times in each tube to assure complete mixing and contact of the solution with the derivatized internal walls of the tubes. A new disposable tip was used for each transfer. After incubation at room temperature for 120 minutes, 100 μL of the trypsin solution from each tube was placed into individual wells of a 96-well, black, flat-bottomed plate (Greiner Bio-one, catalog number 655076, Monroe, N.C.). […] The plate was incubated at room temperature for 95 minutes. […] Increased fluorescence is indicative of trypsin-mediated digestion of the added FTC-casein solution via the decrease of FRET-based fluorescence quenching that exists in the intact protein.
# [2] = target: T1, TPCK trypsin; type: biochemical; remark: listed apart in the source
# Method: Protease activity and the inhibition thereof were measured with a Fluorescent Protease Assay Kit (Thermo Scientific Pierce, catalog number 23266). TRIS-buffered saline (TBS, 25 mM Tris, 0.15 M NaCl, pH 7.2) was reconstituted from dry solids in the kit with deionized water. Trypsin stock solution was freshly prepared by dissolving TPCK trypsin from kit with 1 mL deionized water to make a 50 mg/mL solution. Aliquots of 10 μL were stored at −60° C. Individual aliquots of the stock solution were diluted in 1.0 mL of TBS (0.5 mg/mL), and 10 μL of this solution was further diluted in 10 mL of TBS (0.5 μg/mL). This solution was serially diluted 1:1 with TBS to create a trypsin solution of 62.5 ng/mL. The trypsin solution was kept in an ice bath until use. 200 μL of the diluted trypsin (12.5 ng) was added to each prepared polypropylene tube. The solution was aspirated and re-dispensed three times in each tube to assure complete mixing and contact of the solution with the derivatized internal walls of the tubes. A new disposable tip was used for each transfer. After incubation at room temperature for 120 minutes, 100 μL of the trypsin solution from each tube was placed into individual wells of a 96-well, black, flat-bottomed plate (Greiner Bio-one, catalog number 655076, Monroe, N.C.). FTC-casein—(casein protein modified by the addition of fluorescein isothiocyanate, a part of the Fluorescent Protease Assay Kit) solution in TBS buffer was freshly prepared and 100 μL of this solution was added to each well and mixed via aspiration and dispense. The plate was incubated at room temperature for 95 minutes. The fluorescence of the samples in the 96-well plate was measured on a SpectraFluor Plus fluorescence spectrometer (Tecan, Mannedorf, Switzerland) 5 minutes after the solution was added and additionally after 10, 20, 40, 60 and 95 minutes. Increased fluorescence is indicative of trypsin-mediated digestion of the added FTC-casein solution via the decrease of FRET-based fluorescence quenching that exists in the intact protein.
# [3] = 1.0 mM AEBSF in the well (not immobilized), after 20 minutes, background 5382 RFU
smiles,measurement,setting,value
"Cl.NCCc1ccc(S(=O)(=O)F)cc1 [AEBSF Ligand, 4-(2-aminoethyl)benzenesulfonyl fluoride hydrochloride]","fluorescence of wells that contained FTC-casein, trypsin and inhibitor",[1]; [3],5265 RFU
same,average fluorescence of wells with trypsin exposed to tubes with immobilized ligand,"[1]; Example A, ligand immobilized on tube wall, 12.5 ng trypsin per tube, 120 minutes at room temperature, background 5382 RFU",13164 RFU
same,inhibition of trypsin activity,"[1]; Example A, ligand immobilized on tube wall, trypsin exposed 120 minutes at room temperature",50%
same,"fluorescence of wells that contained FTC-casein, trypsin and inhibitor",[2]; [3],5265 RFU
same,average fluorescence of wells with trypsin exposed to tubes with immobilized ligand,"[2]; Example B, ligand immobilized on tube wall, 12.5 ng trypsin per tube, 120 minutes at room temperature, background 5382 RFU",12592 RFU
same,inhibition of trypsin activity,"[2]; Example B, ligand immobilized on tube wall, trypsin exposed 120 minutes at room temperature",53%

# Like-named read-outs stand apart in the source and are kept apart here.
